Bioassay records (PubChem)
TCR activator – T cell receptor activation; 330,000 tested, under 10 active; primary human leukocytes, anti-CD3, IL-2 HTRF, 48 h; Potency, µM (series often up to 9.22 µM), for inactives: at the highest dose activation of IL-2 secretion, hits mostly activators; further: % of control where 0% means no effect
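IL-2 produced over 48 hr by a-CD3 bead-stimulated primary human leukocytes exposed to compounds was detected with a homogeneous time-resolved FRET immunoassay, 665nm acceptor signal after 320nm excitation.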
RXFP1 antagonist – antagonists of human relaxin receptor RXFP1; actives 0.59% (n = 350,000); HEK293-RXFP1, relaxin-stimulated cAMP HTRF, 30 min; active compounds read low; activity change, negative = inhibition, % at 57.5 µM; Q9HBX9;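 active means activity change of -60% or lower, but not beyond a set lower limit; inconclusive means change between -60% and -40%, or beyond the set limit; inactive means change above -40%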; further: on the % scale 0 is the no-effect control and ±100 the full control effect
PINK1 modulator – PINK1 expression modulation; PINK1 immunofluorescence, high-content cytometry, 24 h; Potency, µM (titrated, usually from 76.6 µM), for the others: at the highest dose activation (PINK1 increase), most hits filed as activators; actives 0.2% (n = 410,000); AID 624263; active means well fitted activation curve with a large enough effect; inconclusive means small, poorly fitted or top-dose-only effect; cell line not stated here; further: potency means the concentration at half of the fitted maximal effect; % of control where 0% means no effect; nearly all actives have a fitted effect of over 65% in size
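PINK1 protein level read as immunofluorescence by microplate cytometer in a fixed, stained stable cell line after 24 h exposure to five compound concentrations, with CCCP as control.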
IL2 activator – activators of IL-2; IL-2 activation reporter assay, cell-based qHTS; stimulated with anti-CD3/CD4/CD28 beads; in transgenic mouse T cells; activation, % (series mostly up to about 46 µM); actives 0.065% (n = 360,000); AID 652025; in the data active means activation above about 50%; inconclusive means mostly about 30% to 49%; further: 0% is about no effect
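EGFP and DsRed fluorescence is measured by plate cytometry in unstimulated transgenic mouse T cells exposed to compound for 60 minutes, then stimulated 18 hours at 37 degrees C with anti-CD3/anti-CD4 beads plus anti-CD28.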
RXFP1 agonist – RXFP1 (human) receptor agonism; Q9HBX9; HEK293T-RXFP1 cAMP TR-FRET, 30 min; response scale: percent of porcine relaxin response, buffer zero; Potency, µM (doses to about 57.5 µM), without a hit: top-dose activation, hits mostly activators; actives 0.3% (n = 370,000); further: potency means the concentration at half of the fitted maximal effect; on the % scale 0 is the no-effect control and ±100 the full control effect; nearly all actives have a fitted effect of over 60% in size
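HEK293 cells stably expressing RXFP1, treated 30 min at 37C with compounds plus PDE4 inhibitor Ro 20174; cAMP measured by HTRF TR-FRET. Normalized to buffer and 29 nM porcine relaxin; EC50 by Hill fit.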
miR-21 reporter – raises the signal of a miR-21 reporter | Potency, µM (doses to about 38.3 µM), for inactives: top-dose reporter change, positive = more light | HeLa miR-21 FLuc reporter, luciferase, 48 h | AID 2288 | 340,000 tested, under 10 active; active = well fitted rising curve with a large enough effect; inconclusive = small, poorly fitted or top-dose-only effect; inactive = no such curve, though single readings can be large or run the other way;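 also: % of control where 0% means no effect; miR-21 action dims this reporter so a rising signal means less miR-21 action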
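Luminescence from a firefly luciferase reporter carrying a miR-21 binding site downstream, stably expressed under a CMV promoter in HeLa cells that make miR-21 endogenously, reports miRNA modulation after 48 h compound exposure up to approximately 40uM final.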
An asterisk follows results filed as active; [ ] = another dose, or the depositor's remark. Shown are actives, neighbours in structure and some others; about 0.78% of the full set was active somewhere. Unless noted, the call rests on the fitted dose curve; in most records, active means well fitted curve in the direction sought with a large enough effect; inconclusive means small, poorly fitted or top-dose-only effect, or another doubt; inactive means no such curve, though single readings can be large; an effect the other way counts as inactive or inconclusive.

`CC(=O)Nc1ccc2c(c1)Cc1cc(N3C(=O)C=CC3=O)ccc1-2` gave TCR activator -7.4%, RXFP1 antagonist -61.4*, PINK1 modulator 5.7% and IL2 activator 0.3.
For Cc1nc2c(C(=O)NCCC(C)C)c[nH]n2c(=O)c1Cc1ccccc1F the results were TCR activator 2.3%, RXFP1 antagonist -100.6*, PINK1 modulator 7.2%[38.3 µM], IL2 activator -3.5, RXFP1 agonist 2.2% and miR-21 reporter 8.3%.
`CCOc1cc(CNCCO)cc(Br)c1OCc1ccccc1Cl` gave TCR activator -1.6%, RXFP1 antagonist -74.1*, PINK1 modulator 0.7%, IL2 activator -0.8, RXFP1 agonist -0.6% and miR-21 reporter inconclusive.
For CCOc1cc(CNCCCN2CCOCC2)cc(Br)c1OCc1ccccc1Cl the results were TCR activator 0.7%, RXFP1 antagonist -91.8*, PINK1 modulator -0.5%, IL2 activator -4.5, RXFP1 agonist 3.2% and miR-21 reporter inconclusive.
For CCC(C)Sc1ccc(-c2nc3ccc(C)cn3c2NCc2ccccc2)cc1OC (stereo not given) the results were TCR activator -9.1%, PINK1 modulator 15.8µM*, IL2 activator -0.8 and RXFP1 agonist 25.8%.
`CCC(C)Sc1cc(-c2nc3cc(C)ccn3c2NC2CCCCC2)ccc1OC` (stereo not given) gave TCR activator 10.6%, PINK1 modulator 12.6µM* and IL2 activator -2.3.
CCC(C)Sc1cc(-c2nc3ccc(C)cn3c2NCc2ccccc2)ccc1OC (stereo not given) was read as TCR activator 4.1%, PINK1 modulator inconclusive and IL2 activator -0.7.
CCCCNc1c(-c2ccc(OC)c(SC3CCCCC3)c2)nc2ccc(C)cn12 was read as TCR activator -3.2%, PINK1 modulator inconclusive and IL2 activator -4.4.
`CCCCNc1c(-c2ccc(SC3CCCCC3)c(OC)c2)nc2ccc(C)cn12` gave TCR activator -10.8%, PINK1 modulator 25.1µM* and IL2 activator -0.9.
`CCC(C)Sc1cc(-c2nc3ccccn3c2NC2CCCCC2)ccc1OC` (stereo not given) gave TCR activator -2.7%, PINK1 modulator 1.4%, IL2 activator -4.2 and RXFP1 agonist 17.8%.
`COCCC(=O)NCC1Cc2cc(Cl)cc(-c3ccc4[nH]ccc4c3)c2O1` (stereo not given) gave PINK1 modulator 2.0%.
Cc1cnc(-n2ncc(C(=O)NCCc3cccnc3)c2C)nc1-c1cccs1 was read as PINK1 modulator 1.5%.
`Cc1oc(-c2ccccc2)nc1CCC(=O)c1ccc(CC2SC(=O)NC2=O)cc1` (stereo not given) gave RXFP1 antagonist -36.8.
`COc1ccccc1C(=O)N(Cc1cc2cc3c(cc2nc1N(C)C)OCO3)CC1CCCO1` (stereo not given) gave PINK1 modulator 2.0%.
For O=S(=O)(c1ccc(NC(=S)NC23CC4CC(CC(C4)C2)C3)cc1)N1CCCCC1 the results were RXFP1 antagonist -6.2, PINK1 modulator 17.8µM* and IL2 activator -3.8.
Screening O=S(=O)(c1ccc(NC(=S)Nc2ccccc2)cc1)N1CCOCC1 returned TCR activator 2.8%[46.1 µM], RXFP1 antagonist -8.3, PINK1 modulator -0.4%, IL2 activator -1.7, RXFP1 agonist 0.2% and miR-21 reporter -4.1%.
For CC(NC(=S)Nc1ccc(S(=O)(=O)N2CCOCC2)cc1)C1CC2CCC1C2 (stereo not given) the results were TCR activator -0.6%[46.1 µM], RXFP1 antagonist -8.3, PINK1 modulator 39.8µM*, IL2 activator -1.8, RXFP1 agonist 0.4% and miR-21 reporter inconclusive.
For NS(=O)(=O)c1ccc(NC(=S)Nc2ccc(S(=O)(=O)N3CCCC3)cc2)cc1 the results were TCR activator -2.3%, RXFP1 antagonist 13.4, PINK1 modulator 0.9%, IL2 activator 0.8, RXFP1 agonist -0.3% and miR-21 reporter 1.0%.
O=C(Nc1ccccc1)C(c1ccccc1)C1CCCC1 (stereo not given) was read as TCR activator -0.8%[46.1 µM], RXFP1 antagonist -69.8*, PINK1 modulator 5.1%, IL2 activator 4.1, RXFP1 agonist -2.0% and miR-21 reporter 7.1%.
CC(CCc1ccccc1)NC(=O)c1ccccc1Cl (stereo not given) was read as TCR activator 3.1%, RXFP1 antagonist -74.0*, PINK1 modulator -0.7%, IL2 activator -2.5, RXFP1 agonist 1.5% and miR-21 reporter -6.5%.
`C(=C\c1ccccc1)/C=N/Nc1nc2ccccc2s1` gave TCR activator -1.4%, RXFP1 antagonist -11.6, PINK1 modulator 6.8%[38.3 µM], IL2 activator -0.2, RXFP1 agonist 2.4% and miR-21 reporter -53.6%.
CCC/C=N/Nc1nc2ccccc2s1 was read as TCR activator -3.9%, RXFP1 antagonist -90.8*, PINK1 modulator 1.1%, IL2 activator 0.4, RXFP1 agonist 0.2% and miR-21 reporter -51.8%.
For COc1ccccc1N1CCN(c2nc(CNC(=O)c3sc(C)nc3C)nc3ccccc23)CC1 the results were PINK1 modulator 0.6%.
Cc1cc(C)c(C(=O)Nc2ccc(Br)c(C(F)(F)F)c2)c(C)c1 was read as TCR activator -5.7%[46.1 µM], RXFP1 antagonist -38.0, PINK1 modulator 12.6µM*, IL2 activator 0.1, RXFP1 agonist 3.3% and miR-21 reporter 9.9%.
COc1cc(C(=O)Nc2nc3ccccc3s2)ccc1OCc1c(C)noc1C was read as TCR activator -1.6%, RXFP1 antagonist 9.8, PINK1 modulator 19.4%[38.3 µM], IL2 activator -3.2, RXFP1 agonist -0.9% and miR-21 reporter -18.1%.
COc1cc(C(=O)Nc2nccs2)ccc1OCc1c(C)noc1C was read as RXFP1 antagonist 0.2, PINK1 modulator 11.2µM*, IL2 activator -2.4, RXFP1 agonist 0.7% and miR-21 reporter -0.2%.
Screening CCOC(=O)c1c(NC(=O)C2COc3ccccc3O2)sc2c1CCN(Cc1ccccc1)C2 (stereo not given) returned TCR activator -8.2%[46.1 µM], RXFP1 antagonist 3.0, PINK1 modulator 6.4%, IL2 activator -1.8, RXFP1 agonist 0.7% and miR-21 reporter 11.2%.
Screening NC(=O)c1c(NC(=O)C2COc3ccccc3O2)sc2c1CCN(Cc1ccccc1)C2 (stereo not given) returned TCR activator 0.9%, RXFP1 antagonist -97.3*, PINK1 modulator 13.6%, IL2 activator 400.7*, RXFP1 agonist 5.8% and miR-21 reporter 4.9%.

Three entries out of the list, ordered by formula weight, falling.
Screening NC(=O)c1c(NC(=O)C2COc3ccccc3O2)sc2c1CCN(Cc1ccccc1)C2 (stereo not given) returned TCR activator 0.9%, RXFP1 antagonist -97.3*, PINK1 modulator 13.6%, IL2 activator 400.7*, RXFP1 agonist 5.8% and miR-21 reporter 4.9%.
`CCC(C)Sc1cc(-c2nc3cc(C)ccn3c2NC2CCCCC2)ccc1OC` (stereo not given) gave TCR activator 10.6%, PINK1 modulator 12.6µM* and IL2 activator -2.3.
Screening O=S(=O)(c1ccc(NC(=S)Nc2ccccc2)cc1)N1CCOCC1 returned TCR activator 2.8%[46.1 µM], RXFP1 antagonist -8.3, PINK1 modulator -0.4%, IL2 activator -1.7, RXFP1 agonist 0.2% and miR-21 reporter -4.1%.
